Key:
[1] = test system: Staphylococcus aureus; details: isolate 3
[2] = test system: Staphylococcus aureus; details: isolate 4

Work on GENTAMICIN yielded an MIC [1] of 100 nM and an MIC [2] of 100 nM.

— ChEMBL document CHEMBL4425163, “Structure elucidation of anti-methicillin resistant Staphylococcus aureus (MRSA) flavonoids from balsam poplar buds” (Bioorg Med Chem, 2016)
